From PubChem BioAssay AID2435 (The Scripps Research Institute Molecular Screening Center, 2010) come the findings set out here.

The chains behind the UniProt entries cited, without tags or fusion partners.
UniProt P30559, whole entry: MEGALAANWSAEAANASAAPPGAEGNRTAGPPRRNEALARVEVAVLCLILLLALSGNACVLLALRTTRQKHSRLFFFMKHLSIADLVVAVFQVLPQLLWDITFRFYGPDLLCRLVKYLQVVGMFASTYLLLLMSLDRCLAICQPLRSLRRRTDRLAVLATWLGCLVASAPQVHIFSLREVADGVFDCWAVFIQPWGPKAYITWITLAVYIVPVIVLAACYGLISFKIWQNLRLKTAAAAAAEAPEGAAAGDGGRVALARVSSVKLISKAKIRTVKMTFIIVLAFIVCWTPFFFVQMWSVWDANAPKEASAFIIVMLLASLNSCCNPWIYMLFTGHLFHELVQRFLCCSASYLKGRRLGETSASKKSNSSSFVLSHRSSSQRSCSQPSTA

Only a part is listed here, and it is no random draw. Some structures show a salt or complex split into parts, the way the source records it. The source made the active and inactive calls.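 How the source made its calls: active means activation above the mean of all tested compounds plus 3 SD, cutoff set per screening run (cut at about 20% in these data); inactive means the rest.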

In the test the target is Oxytocin receptor (Homo sapiens) (UniProt P30559). Kind of test: oxytocin receptor activation by calcium flux – fluorescence, CHO-OTR cells, Fluo-8 calcium, primary screen (AID 2435).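 Further: peak over basal fluorescence ratio from a 100 s FLIPR kinetic read.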 To be noted: Fluo-8 calcium fluorescence, at 3 µM, active compounds read high, normalized: DMSO 0%, oxytocin 100%.
With `CP(=O)(OC12CC3CC(CC(C3)C1)C2)OC12CC3CC(CC(C3)C1)C2`, the activation is inactive: -2.33%. With `CCOC(=O)c1ccc(NP(C)(=O)Oc2ccc(Cl)cc2)cc1` (stereo not given), the activation is inactive: 0.49%. The result for `Nc1ccc2c(ccc3cccnc32)n1.O=[N+]([O-])c1cc([N+](=O)[O-])c(O)c([N+](=O)[O-])c1` reads inactive: -0.22%; that for `CP(=O)(Oc1ccccc1)N1CCOC1=O` (stereo not given), inactive: 1.07%; that for `CCc1ccc(OP(C)(=O)Nc2cccnc2)cc1` (stereo not given), inactive: -1.33%. The result for `COc1ccccc1OP(C)(=O)Nc1c(C)n(C)n(-c2ccccc2)c1=O` (stereo not given) reads inactive: -0.56%; that for `O=C(OCCCN1CCCC1)C(O)(c1ccccc1)C1CCCCC1` (stereo not given), inactive: 1.81%; that for `CCN(CC)CC(O)COC(=O)C(O)(c1ccccc1)C1CCCCC1` (stereo not given), inactive: 3.05%.

As to `COc1ccc(OP(C)(=O)Nc2ccc(Br)cc2)cc1` (stereo not given), the activation is inactive: 4.27%. The result for `CN(C)C(=O)c1c([N+](=O)[O-])cc([N+](=O)[O-])cc1[N+](=O)[O-]` reads inactive: 1.07%. The result for `CP(=O)(Nc1ccc(Cl)cc1)Oc1ccc(F)cc1` (stereo not given) reads inactive: -0.7%. Consider `CC(C)(C)c1ccc(OP(C)(=O)O)cc1`, for which the activation was inactive: 0.74%. For `COc1ccccc1OP(C)(=O)Nc1ccccc1Br` (stereo not given) the value was inactive: -0.16%; for `CN(C)CCOC(=O)C(O)(c1ccccc1)C1CCCC1` (stereo not given), inactive: 1.58%; for `COc1ccc(OP(C)(=O)Nc2ccccn2)cc1` (stereo not given), inactive: 0.33%. On to `COc1ccccc1OP(C)(=O)Nc1ccc(Br)cc1` (stereo not given), for which the activation was inactive: 0.06%. For `CCc1ccc(OP(C)(=O)O)cc1` the value was inactive: 1.93%; for `CP(=O)(Nc1ccccn1)Oc1ccccc1` (stereo not given), inactive: 0.6%. As to `COc1ccccc1OP(C)(=O)Nc1ccc(C)cc1C` (stereo not given), the activation is inactive: -1.08%. The result for `O=[N+]([O-])c1cc([N+](=O)[O-])c(Nc2ccccn2)c([N+](=O)[O-])c1` reads inactive: 1.36%. As for `Cc1c(NP(C)(=O)Oc2ccc(C(C)C)cc2)c(=O)n(-c2ccccc2)n1C` (stereo not given), the activation was inactive: -1.04%.

For `COc1ccc(OP(C)(=O)Nc2ccccc2Br)cc1` (stereo not given), the activation is inactive: -0.16%.

For `COc1ccccc1OP(C)(=O)Nc1ccc(C)c(C)c1` (stereo not given), the activation was inactive: -1.08%.

For the molecule `Cc1cc(C)cc(OP(C)(=O)Nc2cccc(C(F)(F)F)c2)c1` (stereo not given), the activation is inactive: -2.61%.

For the molecule `CP(=O)(OCCOc1ccccc1)OCCOc1ccccc1`, the activation is inactive: 0.04%. For `CP(=O)(Nc1ccc(Cl)cc1Cl)Oc1ccccc1` (stereo not given) the value was inactive: -2.14%; for `Cc1nc2ccc3ccccc3c2o1.O=[N+]([O-])c1cc([N+](=O)[O-])c(O)c([N+](=O)[O-])c1`, inactive: 2.01%. For `COc1ccc(OP(C)(=O)Nc2ccc(SC(F)(F)F)cc2)cc1` (stereo not given) the value was inactive: -0.35%; for `CCOC(=O)c1ccc(NP(C)(=O)Oc2ccc(F)cc2)cc1` (stereo not given), inactive: 0.89%; for `CCCCCOc1ccc(NP(C)(=O)Oc2ccc(Cl)cc2Cl)cc1` (stereo not given), inactive: -0.73%.

Consider `O=[N+]([O-])c1cc([N+](=O)[O-])c(OC2CCCCC2O)c([N+](=O)[O-])c1` (stereo not given), for which the activation was inactive: -0.01%. On to `CP(=O)(Nc1ccccc1)Oc1ccc(F)cc1` (stereo not given), for which the activation was inactive: -0.53%. The result for `CCN(CC)CCCOC(=O)C(O)(c1ccccc1)C1CCCCC1` (stereo not given) reads inactive: 0.3%. The result for `CC(C)c1ccc(OP(C)(=O)Nc2ccc(SC(F)(F)F)cc2)cc1` (stereo not given) reads inactive: -0.78%. Consider `CP(=O)(Nc1ccccc1F)Oc1ccccc1` (stereo not given), for which the activation was inactive: -0.39%.

Regarding `COc1ccc2c(c1O)-c1c(O)c(OC)cc3c1[C@H](C2)[N+](C)(C)CC3.O=[N+]([O-])c1cc([N+](=O)[O-])c([O-])c([N+](=O)[O-])c1[O-]`, the activation is inactive: 0.04%. For the molecule `O=C(OCCN1CCN(CCOCc2ccccc2)CC1)C(O)(c1ccccc1)c1ccccc1`, the activation is inactive: -0.01%. The result for `O=C(OC1CN2CCC1CC2)c1ccc([N+](=O)[O-])cc1` (stereo not given) reads inactive: 0.57%.

With `CCOP(C)(=S)SCC(=O)NC(C)(CC)C(=O)O` (stereo not given), the activation is inactive: 0.38%. The result for `CP(=O)(Nc1ccc(SC(F)(F)F)cc1)Oc1ccc(F)cc1` (stereo not given) reads inactive: -0.22%. On to `Cc1ccccc1NP(C)(=O)Nc1ccccc1C`, for which the activation is inactive: 1.13%. The result for `CP(=O)(Nc1ccc2c(c1)OCCO2)Oc1ccccc1` (stereo not given) reads inactive: 1.49%; that for `COc1ccc(NP(C)(=O)Oc2ccccc2OC)cc1` (stereo not given), inactive: 0.47%.

Consider `CN(C)CCOC(=O)C(O)(c1ccccc1)C1CCCCC1` (stereo not given), for which the activation is inactive: 2.24%.

For the molecule `COc1ccc(OP(C)(=O)Nc2cccc(Br)c2)cc1` (stereo not given), the activation was inactive: 0.77%. Consider `O=[N+]([O-])c1cc([N+](=O)[O-])c(NCC2CCS(=O)(=O)C2)c([N+](=O)[O-])c1` (stereo not given), for which the activation is inactive: 0.23%. For `O=[N+]([O-])c1cc([N+](=O)[O-])c(Nc2nnnn2CCO)c([N+](=O)[O-])c1` the value was inactive: 0.79%; for `CC1=C2N=C(C=C3N=C(C(C)=C4[N-][C@@](C)([C@@H]5N=C1[C@](C)(CCC(=O)NC[C@@H](C)OP(=O)([O-])O[C@H]1[C@@H](O)[C@@H](n6cnc7cc(C)c(C)cc76)O[C@@H]1CO)[C@H]5CC(N)=O)[C@@](C)(CC(N)=O)[C@@H]4CCC(N)=O)[C@@](C)(CC(N)=O)[C@@H]3CCC(N)=O)C(C)(C)[C@@H]2CCC(N)=O.[C-]#N.[Co+3]`, inactive: 0.17%. `CCOC(=O)C(CC)C1=NC(C)(C)Cc2ccccc21.O=[N+]([O-])c1cc([N+](=O)[O-])c(O)c([N+](=O)[O-])c1` (stereo not given): the activation was inactive: -0.22%. For `CP(=O)(Nc1ccc(SC(F)(F)F)cc1)Oc1ccccc1` (stereo not given) the value was inactive: 3.27%; for `CCCOc1ccc(NP(C)(=O)Oc2ccc(Cl)cc2)cc1` (stereo not given), inactive: -1.76%.

For the molecule `CN1CCCCC1COC(=O)C1(O)c2ccccc2CCc2ccccc21` (stereo not given), the activation is inactive: 1.42%. The result for `COc1ccccc1OP(C)(=O)Nc1c(C)cccc1C` (stereo not given) reads inactive: 1.53%; that for `O=[N+]([O-])c1cc([N+](=O)[O-])c(-n2nnc3ccccc32)c([N+](=O)[O-])c1`, inactive: 0.81%. For `Cc1nc2ccc3ccccc3c2s1.O=[N+]([O-])c1cc([N+](=O)[O-])c(O)c([N+](=O)[O-])c1` the value was inactive: -1.6%.
